The species named for this assay is Homo sapiens. The assay is described as follows: Modulation of patient derived full length SMN2 pre mRNA splicing assessed as restoration of functional SMN2 to protein level.

Each structure is given as a SMILES string.

Take `Cc1cn2cc(-c3cc4ccc(N5CCN(C)CC5)cc4c(=O)o3)nc2c(C)n1`: the EC1.5 was determined as 120 nM.

(Values after ChEMBL document CHEMBL4049449, “Discovery of a Novel Class of Survival Motor Neuron 2 Splicing Modifiers for the Treatment of Spinal Muscular Atrophy” (J Med Chem, 2017).)
